Test results: article PMC5510615
Like-named read-outs stand apart in the source and are kept apart here.

Assays:
Test in all cases: cell-surface binding assay with streptavidin-alkaline phosphatase staining
[1] = target: neurexin 1β expressed on SH-SY5Y cells (UniProt P58400)
[2] = target: endogenous LAG3 on mouse cortical neurons (mouse (endogenous in cortical neurons)) (UniProt Q61790)
[3] = target: LAG3 overexpressed on SH-SY5Y cells (not stated (human or mouse cDNA cloned)) (UniProt Q61790)
[4] = target: LAG3 overexpressed on SH-SY5Y cells (not stated (human or mouse cDNA cloned)) (UniProt Q61790); remark: listed apart in the source

selectivity, Kd (monomer) divided by Kd (PFF) [1]: 11
Kd [2]: 0.103 µM
Kd [3]: 0.077 µM
selectivity, Kd (monomer) divided by Kd (PFF) [3]: 38
Kd [4]: 0.071 µM
Substance: mouse α-synuclein-biotin pre-formed fibrils (from UniProt O55042 1-140) (natural protein)
